## Permeability data for macrocyclic peptides

Values of Furukawa et al. 2020, doi:10.1002/anie.202004550, as listed in CycPeptMPDB.

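Conditions beyond the assay type are not listed; see the original paper. The list need not hold all peptides of the study. Entries at the database's floor value (log10 P of -10) are not listed.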

PAMPA is the parallel artificial membrane permeability assay, which has no cells and reads passive diffusion. Permeability is in 10^-6 cm/s, converted from the database's log10 values; higher is more permeable.

| PAMPA (10^-6 cm/s) | SMILES |
|---|---|
| 3 | CC(C)C[C@@H]1NC(=O)CN(Cc2ccc3c(c2)OCO3)C(=O)[C@H](C)NC(=O)[C@H](CC(C)C)N(C)C(=O)[C@H]2CCCN2C(=O)[C@H](C)NC(=O)CN(CC2CCCCC2)C(=O)[C@H](C)NC(=O)[C@H](CC(C)C)N(C)C(=O)[C@H]2CCCN2C1=O |
| 1.7 | CCCCCN1CC(=O)N[C@@H](Cc2ccccc2)C(=O)N2CCC[C@@H]2C(=O)N(C)[C@@H](CC(C)C)C(=O)N[C@@H](C)C(=O)N(Cc2ccc3c(c2)OCO3)CC(=O)N[C@@H](CC(C)C)C(=O)N2CCC[C@@H]2C(=O)N(C)[C@@H](CC(C)C)C(=O)N[C@@H](C)C1=O |
| 0.26 | CCCCCN1CC(=O)N[C@@H](CC(C)C)C(=O)N(C)[C@@H](C)C(=O)N[C@@H](Cc2ccccc2)C(=O)N2CCC[C@@H]2C(=O)N(CCCOC(C)C)CC(=O)N[C@@H](CC(C)C)C(=O)N(C)[C@@H](C)C(=O)N[C@@H](CC(C)C)C(=O)N2CCC[C@@H]2C1=O |
| 1.5 | CCN1CC(=O)N[C@@H](CC(C)C)C(=O)N2CCC[C@@H]2C(=O)N(C)[C@@H](CC(C)C)C(=O)N[C@@H](C)C(=O)N(CC2CCCCC2)CC(=O)N[C@@H](C)C(=O)N2CCC[C@@H]2C(=O)N(C)[C@@H](CC(C)C)C(=O)N[C@@H](C)C1=O |
| 0.78 | CCCCCN1CC(=O)N[C@@H](CC(C)C)C(=O)N(C)[C@@H](C)C(=O)N[C@@H](Cc2ccccc2)C(=O)N2CCC[C@@H]2C(=O)N(CC)CC(=O)N[C@@H](CC(C)C)C(=O)N(C)[C@@H](C)C(=O)N[C@@H](CC(C)C)C(=O)N2CCC[C@@H]2C1=O |
| 5 | CCCCCN1CC(=O)N[C@@H](Cc2ccccc2)C(=O)N2CCC[C@@H]2C(=O)N(C)[C@@H](CC(C)C)C(=O)N[C@@H](C)C(=O)N(CCCOC(C)C)CC(=O)N[C@@H](CC(C)C)C(=O)N2CCC[C@@H]2C(=O)N(C)[C@@H](CC(C)C)C(=O)N[C@@H](C)C1=O |
| 0.036 | CC(C)C[C@@H]1NC(=O)CN(CCCOC(C)C)C(=O)[C@H](C)NC(=O)[C@H](CC(C)C)N(C)C(=O)[C@H]2CCCN2C(=O)[C@H](C)NC(=O)CN(CC2CCOCC2)C(=O)[C@H](C)NC(=O)[C@H](CC(C)C)N(C)C(=O)[C@H]2CCCN2C1=O |
| 0.55 | CC(C)C[C@@H]1NC(=O)CN(CC2CCOCC2)C(=O)[C@H]2CCCN2C(=O)[C@H](CC(C)C)NC(=O)[C@H](C)N(C)C(=O)[C@H](CC(C)C)NC(=O)CN(Cc2ccc3c(c2)OCO3)C(=O)[C@H]2CCCN2C(=O)[C@H](Cc2ccccc2)NC(=O)[C@H](C)N(C)C1=O |
| 1.8 | CC(C)C[C@@H]1NC(=O)CN(CC2CCOCC2)C(=O)[C@H]2CCCN2C(=O)[C@H](CC(C)C)NC(=O)[C@H](C)N(C)C(=O)[C@H](CC(C)C)NC(=O)CN(Cc2ccc3c(c2)OCO3)C(=O)[C@H]2CCCN2C(=O)[C@H](C)NC(=O)[C@H](C)N(C)C1=O |
| 0.14 | CC(C)C[C@@H]1NC(=O)CN(Cc2ccc3c(c2)OCO3)C(=O)[C@H](C)NC(=O)[C@H](CC(C)C)N(C)C(=O)[C@H]2CCCN2C(=O)[C@H](C)NC(=O)CN(CC2CCOCC2)C(=O)[C@H](C)NC(=O)[C@H](CC(C)C)N(C)C(=O)[C@H]2CCCN2C1=O |
| 1.9 | CC(C)C[C@@H]1NC(=O)CN(CC2CCOCC2)C(=O)[C@H]2CCCN2C(=O)[C@H](CC(C)C)NC(=O)[C@H](C)N(C)C(=O)[C@H](CC(C)C)NC(=O)CN(CCCOC(C)C)C(=O)[C@H]2CCCN2C(=O)[C@H](Cc2ccccc2)NC(=O)[C@H](C)N(C)C1=O |
| 0.11 | CC(C)C[C@@H]1NC(=O)CN(CC2CCCCC2)C(=O)[C@H]2CCCN2C(=O)[C@H](CC(C)C)NC(=O)[C@H](C)N(C)C(=O)[C@H](CC(C)C)NC(=O)CN(Cc2ccc3c(c2)OCO3)C(=O)[C@H]2CCCN2C(=O)[C@H](C)NC(=O)[C@H](C)N(C)C1=O |
| 3.6 | CC(C)C[C@@H]1NC(=O)CN(CCCOC(C)C)C(=O)[C@H](C)NC(=O)[C@H](CC(C)C)N(C)C(=O)[C@H]2CCCN2C(=O)[C@H](Cc2ccccc2)NC(=O)CN(CC2CCCCC2)C(=O)[C@H](C)NC(=O)[C@H](CC(C)C)N(C)C(=O)[C@H]2CCCN2C1=O |
| 0.81 | CCCCCN1CC(=O)N[C@@H](CC(C)C)C(=O)N(C)[C@@H](C)C(=O)N[C@@H](C)C(=O)N2CCC[C@@H]2C(=O)N(CCCOC(C)C)CC(=O)N[C@@H](CC(C)C)C(=O)N(C)[C@@H](C)C(=O)N[C@@H](CC(C)C)C(=O)N2CCC[C@@H]2C1=O |
| 3.4 | CC(C)C[C@@H]1NC(=O)CN(CC2CCOCC2)C(=O)[C@H]2CCCN2C(=O)[C@H](CC(C)C)NC(=O)[C@H](C)N(C)C(=O)[C@H](CC(C)C)NC(=O)CN(CCCOC(C)C)C(=O)[C@H]2CCCN2C(=O)[C@H](C)NC(=O)[C@H](C)N(C)C1=O |
| 0.62 | CC(C)C[C@@H]1NC(=O)CN(CC2CCCCC2)C(=O)[C@H]2CCCN2C(=O)[C@H](CC(C)C)NC(=O)[C@H](C)N(C)C(=O)[C@H](CC(C)C)NC(=O)CN(CCCOC(C)C)C(=O)[C@H]2CCCN2C(=O)[C@H](C)NC(=O)[C@H](C)N(C)C1=O |
| 2.8 | CCCCCN1CC(=O)N[C@@H](CC(C)C)C(=O)N(C)[C@@H](C)C(=O)N[C@@H](C)C(=O)N2CCC[C@@H]2C(=O)N(CC)CC(=O)N[C@@H](CC(C)C)C(=O)N(C)[C@@H](C)C(=O)N[C@@H](CC(C)C)C(=O)N2CCC[C@@H]2C1=O |
| 0.017 | CC(C)C[C@@H]1NC(=O)CN(CC2CCCCC2)C(=O)[C@H]2CCCN2C(=O)[C@H](CC(C)C)NC(=O)[C@H](C)N(C)C(=O)[C@H](CC(C)C)NC(=O)CN(Cc2ccc3c(c2)OCO3)C(=O)[C@H]2CCCN2C(=O)[C@H](Cc2ccccc2)NC(=O)[C@H](C)N(C)C1=O |
| 1.7 | CC(C)C[C@@H]1NC(=O)CN(CCCOC(C)C)C(=O)[C@H](C)NC(=O)[C@H](CC(C)C)N(C)C(=O)[C@H]2CCCN2C(=O)[C@H](C)NC(=O)CN(CC2CCCCC2)C(=O)[C@H](C)NC(=O)[C@H](CC(C)C)N(C)C(=O)[C@H]2CCCN2C1=O |
| 1.1 | CC(C)C[C@@H]1NC(=O)CN(Cc2ccc3c(c2)OCO3)C(=O)[C@H](C)NC(=O)[C@H](CC(C)C)N(C)C(=O)[C@H]2CCCN2C(=O)[C@H](Cc2ccccc2)NC(=O)CN(CC2CCCCC2)C(=O)[C@H](C)NC(=O)[C@H](CC(C)C)N(C)C(=O)[C@H]2CCCN2C1=O |
| 5 | CCCCCN1CC(=O)N[C@@H](Cc2ccccc2)C(=O)N2CCC[C@@H]2C(=O)N(C)[C@@H](CC(C)C)C(=O)N[C@@H](C)C(=O)N(CC)CC(=O)N[C@@H](CC(C)C)C(=O)N2CCC[C@@H]2C(=O)N(C)[C@@H](CC(C)C)C(=O)N[C@@H](C)C1=O |
| 0.17 | CCCCCN1CC(=O)N[C@@H](CC(C)C)C(=O)N(C)[C@@H](C)C(=O)N[C@@H](C)C(=O)N2CCC[C@@H]2C(=O)N(Cc2ccc3c(c2)OCO3)CC(=O)N[C@@H](CC(C)C)C(=O)N(C)[C@@H](C)C(=O)N[C@@H](CC(C)C)C(=O)N2CCC[C@@H]2C1=O |

Extract of 2 entries:

| SMILES | PAMPA (10^-6 cm/s) |
|---|---|
| CCCCCN1CC(=O)N[C@@H](CC(C)C)C(=O)N(C)[C@@H](C)C(=O)N[C@@H](C)C(=O)N2CCC[C@@H]2C(=O)N(CC)CC(=O)N[C@@H](CC(C)C)C(=O)N(C)[C@@H](C)C(=O)N[C@@H](CC(C)C)C(=O)N2CCC[C@@H]2C1=O | 2.8 |
| CCCCCN1CC(=O)N[C@@H](CC(C)C)C(=O)N(C)[C@@H](C)C(=O)N[C@@H](C)C(=O)N2CCC[C@@H]2C(=O)N(Cc2ccc3c(c2)OCO3)CC(=O)N[C@@H](CC(C)C)C(=O)N(C)[C@@H](C)C(=O)N[C@@H](CC(C)C)C(=O)N2CCC[C@@H]2C1=O | 0.17 |